# In ChEMBL document CHEMBL3259625 (ACS Med Chem Lett, 2014):
# Sequences of proteins named here, by UniProt entry; tags and fusion partners are left off.
# UniProt P10635, whole entry: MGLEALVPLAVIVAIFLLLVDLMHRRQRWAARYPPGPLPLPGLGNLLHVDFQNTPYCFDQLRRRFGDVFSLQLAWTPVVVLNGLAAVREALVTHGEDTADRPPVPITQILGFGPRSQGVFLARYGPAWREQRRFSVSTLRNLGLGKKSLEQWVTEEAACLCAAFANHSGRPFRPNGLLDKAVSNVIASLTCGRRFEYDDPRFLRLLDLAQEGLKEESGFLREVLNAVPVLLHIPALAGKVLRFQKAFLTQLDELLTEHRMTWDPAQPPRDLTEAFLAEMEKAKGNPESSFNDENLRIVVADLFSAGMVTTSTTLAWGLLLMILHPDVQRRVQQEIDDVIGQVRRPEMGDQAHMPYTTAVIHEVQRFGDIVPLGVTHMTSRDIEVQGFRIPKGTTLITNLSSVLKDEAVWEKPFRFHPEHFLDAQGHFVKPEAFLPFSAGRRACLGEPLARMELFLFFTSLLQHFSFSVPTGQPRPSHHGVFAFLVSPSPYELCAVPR
# UniProt P05177, whole entry: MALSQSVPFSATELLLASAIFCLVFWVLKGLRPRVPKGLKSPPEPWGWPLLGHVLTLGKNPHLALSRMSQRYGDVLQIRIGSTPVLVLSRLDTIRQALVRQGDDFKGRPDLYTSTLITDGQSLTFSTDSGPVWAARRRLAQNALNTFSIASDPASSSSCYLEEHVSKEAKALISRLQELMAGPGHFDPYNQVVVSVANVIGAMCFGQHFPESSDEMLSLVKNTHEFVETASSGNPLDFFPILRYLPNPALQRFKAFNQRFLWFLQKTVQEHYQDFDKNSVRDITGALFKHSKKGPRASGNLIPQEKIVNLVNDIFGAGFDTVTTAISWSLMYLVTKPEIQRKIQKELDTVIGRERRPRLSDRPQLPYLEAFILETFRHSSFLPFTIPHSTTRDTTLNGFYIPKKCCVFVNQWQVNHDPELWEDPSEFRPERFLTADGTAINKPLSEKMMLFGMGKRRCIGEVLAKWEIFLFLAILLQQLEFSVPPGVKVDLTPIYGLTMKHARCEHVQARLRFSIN
# UniProt P08684, whole entry: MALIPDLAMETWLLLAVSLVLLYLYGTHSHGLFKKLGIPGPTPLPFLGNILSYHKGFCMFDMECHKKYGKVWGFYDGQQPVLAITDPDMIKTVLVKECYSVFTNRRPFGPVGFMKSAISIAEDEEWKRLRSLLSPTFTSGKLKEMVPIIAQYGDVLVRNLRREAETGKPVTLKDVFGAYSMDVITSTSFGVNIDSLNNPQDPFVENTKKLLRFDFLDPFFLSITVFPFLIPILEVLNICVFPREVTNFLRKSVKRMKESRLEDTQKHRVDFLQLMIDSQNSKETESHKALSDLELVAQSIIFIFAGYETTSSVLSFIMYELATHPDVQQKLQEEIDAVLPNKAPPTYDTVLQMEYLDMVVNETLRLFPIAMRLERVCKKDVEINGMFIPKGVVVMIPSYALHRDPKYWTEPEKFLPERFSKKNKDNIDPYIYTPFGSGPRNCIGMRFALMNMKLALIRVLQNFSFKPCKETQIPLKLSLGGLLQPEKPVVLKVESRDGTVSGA
# UniProt P11712, whole entry: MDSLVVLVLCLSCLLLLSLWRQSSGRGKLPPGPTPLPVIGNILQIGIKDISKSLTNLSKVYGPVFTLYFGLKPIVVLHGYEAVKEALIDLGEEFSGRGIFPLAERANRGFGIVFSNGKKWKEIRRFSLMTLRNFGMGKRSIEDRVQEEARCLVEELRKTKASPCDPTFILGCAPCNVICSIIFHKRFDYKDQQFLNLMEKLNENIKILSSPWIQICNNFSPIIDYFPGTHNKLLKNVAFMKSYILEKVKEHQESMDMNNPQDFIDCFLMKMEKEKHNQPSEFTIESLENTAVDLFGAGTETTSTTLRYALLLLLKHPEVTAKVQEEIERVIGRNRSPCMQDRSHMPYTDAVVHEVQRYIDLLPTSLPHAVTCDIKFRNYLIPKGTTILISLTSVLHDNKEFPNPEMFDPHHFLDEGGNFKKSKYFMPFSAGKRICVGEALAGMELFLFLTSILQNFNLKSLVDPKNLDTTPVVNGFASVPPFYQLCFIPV
# How the values were obtained:
# Format in all cases: ADME
# [1] = molecular target: Cytochrome P450 2D6 (Homo sapiens, UniProt P10635); assay: Inhibition of CYP2D6 in human liver microsomes assessed as bufuralol hydroxylation to 4'-hydroxybufuralol at 1 uM after 10 mins in presence of NADPH
# [2] = molecular target: Cytochrome P450 1A2 (Homo sapiens, UniProt P05177); assay: Inhibition of CYP1A2 in human liver microsomes assessed as phenacetin […] to acetaminophen at 1 uM after 10 mins in presence of NADPH
# [3] = molecular target: Cytochrome P450 3A4 (Homo sapiens, UniProt P08684); assay: Inhibition of CYP3A4 in human liver microsomes assessed as midazolam hydroxylation to 1'-hydroxymidazolam at 1 uM after 10 mins in presence of NADPH
# [4] = molecular target: Cytochrome P450 2C9 (Homo sapiens, UniProt P11712); assay: Inhibition of CYP2C9 in human liver microsomes assessed as tolbutamide hydroxylation to hydroxytolbutamide at 1 uM after 10 mins in presence of NADPH
SMILES,inhibition (INH) [1],inhibition (INH) [2],inhibition (INH) [3],inhibition (INH) [4]
O=C(N[C@H](Cc1c[nH]c2ccccc12)C(=O)Nc1ccncc1)c1ccc(-c2cccc(F)c2)cc1F,30%,14%,60%,91%
O=C(N[C@H](Cc1c[nH]c2ccccc12)C(=O)Nc1ccncc1)c1ccc(-c2ccc(F)c(F)c2)cc1F,48%,-21%,48%,90%
